# Yeast mating assay B: variants of the scFv Ab-14

The measurements come from Li et al. 2023 (doi:10.1038/s41467-023-39022-2) through the FLAb antibody collection.

Antigen: PDVDLGDISGINAS, a 14-residue peptide of the SARS-CoV-2 spike HR2 region.

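The variants were designed computationally from a first round of random CDR variants and then made and measured. Group labels follow the data file (Ctrl: baseline library sampled from a position-specific scoring matrix, with some repeated check sequences; En: ensemble of fine-tuned language models; GP: Gaussian process model; HC: hill climbing; Gen: genetic algorithm; Gibbs: Gibbs sampling; a sequence that several methods proposed may carry one label only). Affinity was read by AlphaSeq, a pooled yeast mating assay with surface-displayed partners. The frequency of each diploid, read from paired DNA barcodes, reflects how well the two displayed proteins bind. Read counts were normalised to the haploid input and turned into Kd by a linear fit to BCL2-family pairs of known affinity, for each replicate. Each pool was mated in six replicate cultures.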

Ab-14 is the parent antibody, in scFv form: VH, then the linker GGGGSGGGGSGGGGS, then VL. The heavy chain is unchanged in all variants.
VH: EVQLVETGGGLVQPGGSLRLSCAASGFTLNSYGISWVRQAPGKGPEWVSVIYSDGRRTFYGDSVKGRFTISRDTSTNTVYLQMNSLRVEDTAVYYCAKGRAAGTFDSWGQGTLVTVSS
VL: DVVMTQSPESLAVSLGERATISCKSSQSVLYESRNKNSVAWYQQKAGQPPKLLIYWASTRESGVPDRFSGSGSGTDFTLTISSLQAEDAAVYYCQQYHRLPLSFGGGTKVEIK

The parent's light chain CDRs are KSSQSVLYESRNKNSVA, WASTRES, QQYHRLPLS; each variant's own CDRs replace them letter for letter.
Values are log10 of the apparent Kd in nM; lower means stronger binding.
A pair that was not seen in that replicate is written "n.d."; this usually means weak binding, but a binder can also be missed.
Three control strains display no target. For all light chain designs, 4% of the pairings with them gave a signal, with a median of 2.64 and one signal in twenty below 1.59, so weak values seen in few replicates may be background.
In the paper, a design with two or fewer of six values counts as a poor binder.
Values of this round are not directly comparable with the first-round values of the same sequences.

CDR-L1 | CDR-L2 | CDR-L3 | group | log10 Kd, replicates
KSSQSVKYESLNKNSVA | DASTPES | QQYIRLPLS | Ctrl | 0.08 -0.27 0.40 0.85 -0.21 0.32
QLSMVTGHMSVSKNNVA | EMETRVN | QQYDRLPLS | En_Gen | 1.01 0.55 0.72 0.53 0.53 0.41
KFSQSNLYEDRNQNSVA | NASQRLQ | QDYHRLPLS | GP_Gibbs | 0.57 0.76 0.31 -0.09 0.42 0.23
TIGQVMHYESRNKNSVA | QTSVREE | QDYDRLPLS | En_HC | 1.15 1.53 2.37 2.05 1.21 1.40
KSSISFLYESRNKNSVA | EASTRES | QQYHRLPLS | GP_HC | 0.25 0.76 0.25 0.21 0.30 0.55
KLSSSWLMEERNMNSVA | QASQRER | QQYHRLPLS | GP_Gibbs | 0.80 0.46 0.19 0.52 0.16 0.43
KLSWSVLLESRAKNSVA | NASLRES | QQYHRLPLS | GP_Gibbs | 0.74 0.48 0.65 0.17 0.58 0.91
MLLQATMYGERNRNSVA | HASTRED | QQYHRLPLI | En_HC | 1.52 0.63 0.85 0.40 0.69 0.67
KMSQSVLDESRNKNSVA | WASTRES | QQYRRLPLS | Ctrl | 1.43 1.45 1.22 0.70 0.87 0.81
KSSQSVLDESQNKNSVA | WASTRES | QQYHRLPLS | Ctrl | 1.24 1.35 0.90 1.14 1.84 0.55
KWSQSVDYESRNKNSVA | NGQTREA | QQYHRLPLS | GP_Gibbs | -0.10 -0.26 -0.26 -0.52 -0.61 -0.13
RMNKFMSGITEAKNSVA | GAEHRAQ | QSYHRLPLS | En_Gibbs | 0.81 1.45 n.d. n.d. 1.41 1.16
KWSKMVMEGSRNKNSVA | EASQREE | QQYHRLPLS | GP_Gibbs | 0.10 0.22 0.38 0.20 0.05 0.36
KQSPEKLYESRNKNSVA | DASTRES | QQYHRLPLS | GP_HC | -0.09 0.08 -0.27 -0.30 -0.04 -0.01
KISQSVLMEDRNKNSVA | DASTRES | QQYHRLPLS | GP_HC | 0.20 0.28 0.03 0.07 0.01 0.08
RITDHFLGLGNGRQAIA | HATVAVE | QQYHQLPLA | En_Gibbs | 0.91 0.70 0.75 0.58 0.64 0.81
NVGQLMDGESRNHNSVA | HQSTRED | QHYHRLPLS | En_HC | -0.23 -0.31 -0.27 -0.50 -0.41 -0.23
TISQMTSWMSNKKANVA | EVSTRLN | QQYDRLPLS | En_Gen | 1.38 0.83 1.21 1.20 0.96 1.38
KSGQGVEYESRNKNHVA | GASTRES | QQYHRLPLS | GP_HC | 0.68 0.41 0.44 0.21 -0.23 0.19
KISQMQRVGSTHGNSIA | EEQTRAK | QQYHRLPLS | En_Gen | 1.28 1.38 1.38 0.40 0.72 1.76
KLSQPVLYESRNKNSVA | WASTRES | QQYHRLPLS | Ctrl | 1.76 1.02 1.45 1.40 1.04 1.36
KLMQEMLYESRMINSVA | NASQREE | QQYHRLPLS | GP_Gibbs | 1.03 0.68 0.74 1.44 0.95 0.99
KSGCGGLYESRNKNSVA | GASTRES | QQYHRLPLS | GP_HC | -0.26 -0.52 -0.44 -0.56 -0.43 -0.39
MIAESVGYMSRNKNSVA | DNSTRED | QCYDRLPLS | En_HC | 0.70 0.39 1.76 0.25 0.26 0.98
KASQSVLYESHNKNSVA | WADTRES | QQYHRLPLS | Ctrl | 0.70 3.49 1.70 1.53 1.69 1.47
KVSQSVLYQSRNKNSVA | NASQRES | QQYHRLPLS | GP_Gen | 0.18 -0.16 -0.17 -0.22 -0.18 0.06
MITAAPNAYGGNRSNIA | DKEISLN | QQYHHLPLS | En_Gibbs | 0.61 -0.05 0.27 0.41 0.07 0.36
KLSQITGHLSVSKNNVA | EMETREN | QQYDRLPLS | En_Gen | 1.37 0.92 1.65 1.40 1.12 1.52
KSSQSVLYESENKNSVA | GASTRNS | QQYHRLPVS | Ctrl | 1.29 1.21 n.d. 1.00 2.36 1.67
MLSQMWALGSKVKNSVA | QASMRFN | QQYDRLPLI | En_Gen | 2.21 2.63 1.52 1.70 1.52 2.27
KVSEFMRGLMSRKDSIA | DNTTRNH | QQYDRLPLS | En_Gen | n.d. 2.68 n.d. n.d. 2.33 2.94
KSSQSVLYESYYKNSVA | SASTRES | QQYVRLPLS | Ctrl | 1.84 1.23 n.d. 1.57 2.34 2.78
KVSQSVMMESRNKNSVA | EASTRES | QQYHRLPLS | GP_Gen | 0.79 0.37 0.40 0.19 0.59 0.49
ALGDVTRMESNKKNSIA | DMSNRMS | QQYHRLPLS | En_HC | 0.17 0.03 0.04 0.12 -0.10 0.22
KVSQSVPYEERNKNSVA | NASTRES | QQYHRLPLS | GP_Gen | -0.01 -0.34 -0.39 -0.36 -0.37 0.11
NSSQSWLYESRNKNSVA | SGNTREQ | QQYHRLPLS | GP_HC | 0.20 -0.05 0.09 -0.07 0.03 0.53

For reference, 3 entries of the list once more:

CDR-L1 | CDR-L2 | CDR-L3 | group | log10 Kd, replicates
KISQMQRVGSTHGNSIA | EEQTRAK | QQYHRLPLS | En_Gen | 1.28 1.38 1.38 0.40 0.72 1.76
KFSQSNLYEDRNQNSVA | NASQRLQ | QDYHRLPLS | GP_Gibbs | 0.57 0.76 0.31 -0.09 0.42 0.23
KWSKMVMEGSRNKNSVA | EASQREE | QQYHRLPLS | GP_Gibbs | 0.10 0.22 0.38 0.20 0.05 0.36